Data: PubChem BioAssay AID1865 (National Center for Advancing Translational Sciences (NCATS), 2009)
This is a selection; strong and weak results do not stand in their true shares. Activity calls are given as the source filed them. Calls follow the shape of the dose curve; as a rule, active = well fitted activation curve with a large enough effect; inconclusive = small, poorly fitted or top-dose-only effect; inactive = flat fitted curve, though single readings scatter.

experiment: Quantitative High-Throughput Screen for Regulators of Epigenetic Control; details: murine LDR cells, GFP reporter derepression, 30 h; at 53.9 µM (top of the series) unless noted; also: % of control where 0% means no effect; nearly all actives have a fitted effect of over 60% in size
Procedure, shortened: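 In this reporter-derepression format, murine cells bearing a silenced integrated CMV-GFP locus incubate with test compound (30 h, 37 C), then are washed and imaged; fluorescent objects of 20–120 um count as induced cells.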

Row | SMILES | GFP activation
1 | COc1ccccc1OP(C)(=O)Nc1ccc(Br)cc1 (centres undefined) | inactive: 2.13%
2 | CP(=O)(Nc1ccccn1)Oc1ccccc1 (centres undefined) | inactive: 1.78%
3 | COc1ccccc1OP(C)(=O)Nc1ccc(C)cc1C (centres undefined) | inactive: -2.28%
4 | CCc1ccc(OP(C)(=O)O)cc1 | inactive: -1.09%
5 | O=[N+]([O-])c1cc([N+](=O)[O-])c(Nc2ccccn2)c([N+](=O)[O-])c1 | inactive: -7.29%
6 | Cc1c(NP(C)(=O)Oc2ccc(C(C)C)cc2)c(=O)n(-c2ccccc2)n1C (centres undefined) | inactive: 1.06%
7 | CP(=O)(Nc1ccccc1F)Oc1ccccc1 (centres undefined) | inactive: 1.81%
8 | CC(C)c1ccc(OP(C)(=O)Nc2ccc(SC(F)(F)F)cc2)cc1 (centres undefined) | inactive: -2.99%
9 | O=C(OCCN1CCN(CCOCc2ccccc2)CC1)C(O)(c1ccccc1)c1ccccc1 | inactive: -1.28%
10 | CCOC(=O)c1ccc(NP(C)(=O)Oc2ccc(F)cc2)cc1 (centres undefined) | inactive: -4.76%
11 | COc1ccc(OP(C)(=O)Nc2ccc(SC(F)(F)F)cc2)cc1 (centres undefined) | inactive: -3.17%
12 | CP(=O)(Nc1ccccc1)Oc1ccc(F)cc1 (centres undefined) | inactive: -0.262%
13 | CCCCCOc1ccc(NP(C)(=O)Oc2ccc(Cl)cc2Cl)cc1 (centres undefined) | inactive: 8.29%
14 | CCN(CC)CCCOC(=O)C(O)(c1ccccc1)C1CCCCC1 (centres undefined) | inactive: 0%
15 | CN(C)CCOC(=O)C(O)(c1ccccc1)C1CCCCC1 (centres undefined) | inactive: 3.53%
16 | COc1ccc(NP(C)(=O)Oc2ccccc2OC)cc1 (centres undefined) | inactive: 1.28%
17 | COc1ccc(OP(C)(=O)Nc2cccc(Br)c2)cc1 (centres undefined) | inactive: -1.79%
18 | O=[N+]([O-])c1ccc(OP2(=O)COCCO2)cc1 (centres undefined) | inactive: 0.0625%
19 | Cc1cc(-c2cccc3ccccc23)c(C)cn1.O=[N+]([O-])c1cc([N+](=O)[O-])c(O)c([N+](=O)[O-])c1 | inactive: 9.64%
20 | CCOP(C)(=S)SCC(=O)NC(C)(CC)C(=O)O (centres undefined) | inactive: 4.52%
21 | CP(=O)(Nc1ccc(SC(F)(F)F)cc1)Oc1ccc(F)cc1 (centres undefined) | inactive: -2.65%
22 | CCN(CCCl)Cc1ccccc1C | inactive: 1.06%
23 | Cc1ccccc1NP(C)(=O)Nc1ccccc1C | inactive: 0%
24 | CP(=O)(Nc1ccc2c(c1)OCCO2)Oc1ccccc1 (centres undefined) | inactive: 0.833%
